For one compound, Kd results are on record in BindingDB's records for doi:10.1186/1471-2091-12-59 (Ghent University, 2011).

The target in this test is T1, HbpA (Pasteurella multocida (strain Pm70), UniProt Q9CN51).
T1 sequence (Q9CN51 whole entry): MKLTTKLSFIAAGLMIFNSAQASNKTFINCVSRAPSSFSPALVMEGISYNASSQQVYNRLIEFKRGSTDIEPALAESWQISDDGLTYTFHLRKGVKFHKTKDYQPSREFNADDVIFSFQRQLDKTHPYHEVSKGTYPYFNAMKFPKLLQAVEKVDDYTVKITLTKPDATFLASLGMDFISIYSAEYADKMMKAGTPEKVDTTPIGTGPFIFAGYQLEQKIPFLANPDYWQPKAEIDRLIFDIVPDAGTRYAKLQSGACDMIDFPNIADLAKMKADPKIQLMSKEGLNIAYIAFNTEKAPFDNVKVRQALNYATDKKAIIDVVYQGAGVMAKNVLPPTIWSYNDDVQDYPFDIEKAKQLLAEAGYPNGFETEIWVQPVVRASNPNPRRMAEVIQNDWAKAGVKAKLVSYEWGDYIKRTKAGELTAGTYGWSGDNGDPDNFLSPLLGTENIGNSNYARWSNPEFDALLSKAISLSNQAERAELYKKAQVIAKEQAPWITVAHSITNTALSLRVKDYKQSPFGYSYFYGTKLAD
Kind of test: Isothermal Titration Calorimetry (ITC). The conditions noted are these: pH 7.4; 37 °C. Here is the method:
Purified test proteins were dialyzed overnight against 10 mM Tris-HCl, pH 7.4, at 4°C. The resultant dialysis buffer was then used to dissolve the test compounds. Titrations were always preceded by an initial injection of 3 μL and were carried out using 10-μL injections applied 300 s apart. The sample was stirred at a speed of 400 rpm throughout.
Background: Isothermal titration calorimetry measures the heat released or taken up as one component is titrated into another.

`CSC[C@H](NC(=O)CC[C@H](N)C(=O)O)C(=O)NCC(=O)O` [S-methylglutathione] gave a Kd of 550 nM.

A word on the Kd: it is a measure of binding affinity in units of concentration. Read a high Kd as a looser complex.
